Like-named read-outs stand apart in the source and are kept apart here.
Legend:
Casein kinase 1 (CK1δ/ε) = assay: CK1δ/ε kinase assay; assay type: biochemical, porcine; conditions: read-out: IC50 CK1
DYRK1A = DYRK1A (Rattus norvegicus, UniProt Q63470); assay: DYRK1A kinase assay
GSK-3α/β = GSK-3α/β kinase assay; assay type: biochemical, porcine; conditions: read-out: IC50 GSK3α/β
CDK5/p25 [1] = target: T1, CDK5/p25 (Homo sapiens, UniProt Q00535); assay: CDK5/p25 kinase assay; assay type: biochemical
T1 construct: made in house

CDK5/p25 [2] = target: T1, CDK5/p25; conditions: positive control, cited from earlier work

Measured: IC50

COc1ccc(/C=C2\SC(=S)NC2=O)cc1OC [Compound 3d, (5Z)-5-(3,4-Dimethoxybenzylidene)-2-thioxo-1,3-thiazolidin-4-one]
> 10 µM: Casein kinase 1 (CK1δ/ε) | DYRK1A | GSK-3α/β | CDK5/p25 [1]

COc1ccc2c(c1)[nH]c1c(C)nccc12 [Harmine]
> 10 µM: CDK5/p25 [2]; Table 4 | CDK5/p25 [2]; Table 5, same values as Table 4

From PMC8623179, “Design and Microwave Synthesis of New (5Z) 5-Arylidene-2-thioxo-1,3-thiazolinidin-4-one and (5Z) 2-Amino-5-arylidene-1,3-thiazol-4(5H)-one as New Inhibitors of Protein Kinase DYRK1A” (Pharmaceuticals, 2021)
